Assay type in all cases: functional, organism-based
Holding throughout (design): dose 5 mg/kg

Assay [1] deals with Mus musculus. In words: Effect on hypothermia in Swiss albino mouse assessed as change in rectal body temperature at 5 mg/kg, ip after 30 mins by inducible hypothermia test.
Assay [2] relates to Mus musculus. Description: Effect on hypothermia in Swiss albino mouse assessed as change in rectal body temperature at 5 mg/kg, ip after 90 mins by inducible hypothermia test.
Assay [3] relates to Mus musculus. In words: Effect on hypothermia in Swiss albino mouse assessed as change in rectal body temperature at 5 mg/kg, ip after 60 mins by inducible hypothermia test.
Assay [4] concerns Mus musculus. Description: Effect on hypothermia in Swiss albino mouse assessed as change in rectal body temperature at 5 mg/kg, ip after 120 mins by inducible hypothermia test.

The structures appear in SMILES notation.

On to `CCCN(CCC)C1CCc2cccc(O)c2C1` (centres undefined), for which the deltaT in assay [1] is -1.4 °C; in assay [2] it was -0.7 °C; in assay [3], -1.2 °C; in assay [4], -0.2 °C.

The values are drawn from ChEMBL document CHEMBL1649369, “Novel 4-aryl-pyrido[1,2-c]pyrimidines with dual SSRI and 5-HT(1A) activity. part 3” (Eur J Med Chem, 2011).
